# Assay results: article PMC7222171 (Cellular and Molecular Immunology, 2020)
# Protein sequences, listed by entry. Tags and fused reporters are not part of them. Residues count along the entry.
# UniProt Q9WMX2, 384-661: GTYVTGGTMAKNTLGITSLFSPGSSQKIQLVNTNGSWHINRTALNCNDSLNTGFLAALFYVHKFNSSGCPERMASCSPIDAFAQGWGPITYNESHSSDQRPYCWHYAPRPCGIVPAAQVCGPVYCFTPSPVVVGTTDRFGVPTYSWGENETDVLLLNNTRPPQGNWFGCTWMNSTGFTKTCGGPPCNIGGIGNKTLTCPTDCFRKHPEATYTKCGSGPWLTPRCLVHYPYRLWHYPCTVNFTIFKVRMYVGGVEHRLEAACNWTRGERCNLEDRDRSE
# B1: AR3C (antibody, V domains shown)
# VH: VQLLEQSGAEVKKPGSSVKVSCETSGGTFDNYALNWVRQAPGQGLEWIGGVVPLFGTTRNAQKFQGRVTISDDKSTGTGHMELRSLRSEDTAVYYCVRSVTPRYCGGGFCYGEFDYWGQGTLVTVSS
# VL: EIELTQSPATLSVSPGERATLSCRASQSVSSNLAWYQQKPGQAPRLLIYGASTRATGIPARFSGSGSGTEFTLTVSRLEPEDSAVYFCQQYYRSPLTFGGGTKVEIK
# Target: Con1 E2 soluble fragment, amino acids 384–661 (wild type) (Hepatitis C virus genotype 1b, Con1, UniProt Q9WMX2)
# Test: ELISA
binder,measurement,value
B1,binding result,binds
